The source of these data is PubChem BioAssay AID574 (The Scripps Research Institute Molecular Screening Center, 2007).

Amino acid sequences for entries named in this document (tags omitted).
UniProt P28566, whole entry: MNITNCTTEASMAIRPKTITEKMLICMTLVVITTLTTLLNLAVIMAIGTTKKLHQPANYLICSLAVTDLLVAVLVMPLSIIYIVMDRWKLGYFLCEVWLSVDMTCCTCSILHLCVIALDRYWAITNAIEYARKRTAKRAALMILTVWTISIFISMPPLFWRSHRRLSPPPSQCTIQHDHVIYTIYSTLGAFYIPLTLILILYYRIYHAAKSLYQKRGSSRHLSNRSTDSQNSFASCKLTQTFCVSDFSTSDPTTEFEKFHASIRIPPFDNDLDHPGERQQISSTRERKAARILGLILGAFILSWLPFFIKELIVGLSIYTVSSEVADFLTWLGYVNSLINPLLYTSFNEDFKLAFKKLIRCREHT

The structures appear in SMILES notation. The list shows a part of the results, in another mix than the full data. Active and inactive are the calls of the source.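 The calls were made as follows: active = activation above a set limit, the screen-wide mean activation plus 3 SD (cut at about 8.5% in these data); inactive = the rest.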

The target in the assay is 5-hydroxytryptamine receptor 1E (Homo sapiens) (UniProt P28566). The assay can be described thus: 5-HT1E receptor agonists, primary screen, cell-based, HTS (AID 574).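 Also: 100% = positive control agonist at 1 µM giving full maximal response.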 To be noted: CHO 5-HT1E Ga15 NFAT-bla reporter, FRET; at 6 µM; stronger effect = higher value; 0% DMSO wells, 100% control agonist wells.
In the case of `CP(=O)(Nc1ccc2c(c1)OCCO2)Oc1ccccc1` (stereo not drawn), the activation is inactive: 0.6%. Under `Cc1ccccc1NP(C)(=O)Nc1ccccc1C` stands inactive: -0.3%. For `CCOP(C)(=S)SCC(=O)NC(C)(CC)C(=O)O` (stereo not drawn) the value was inactive: -0.6%. As for `CN(C)CCOC(=O)C(O)(c1ccccc1)C1CCCCC1` (stereo not drawn), the activation is inactive: -0.1%. Under `CP(=O)(Nc1ccccc1F)Oc1ccccc1` (stereo not drawn) stands inactive: -1.2%. Consider `CP(=O)(Nc1ccccn1)Oc1ccccc1` (stereo not drawn), for which the activation was inactive: -0.6%. Under `Cc1nc2ccc3ccccc3c2o1.O=[N+]([O-])c1cc([N+](=O)[O-])c(O)c([N+](=O)[O-])c1` stands inactive: -0.1%; under `COc1ccccc1OP(C)(=O)Nc1ccc(C)c(C)c1` (stereo not drawn), inactive: 3%. Turning to `CCN(CC)CC(O)COC(=O)C(O)(c1ccccc1)C1CCCCC1` (stereo not drawn), the activation is inactive: 0%. With `CP(=O)(Oc1ccccc1)N1CCOC1=O` (stereo not drawn), the activation is inactive: -0.4%. With `COc1ccccc1OP(C)(=O)Nc1c(C)n(C)n(-c2ccccc2)c1=O` (stereo not drawn), the activation was inactive: -0.8%. For the molecule `CCOP(C)(=S)SCC(=O)NC(C)C(=O)O` (stereo not drawn), the activation is inactive: 0.7%. Take `CP(=O)(NC(=O)Nc1ccccc1)Oc1ccccc1` (stereo not drawn): the activation is inactive: -0.9%. `CP(=S)(Nn1cnnc1)Oc1ccccc1` (stereo not drawn): the activation is inactive: 0.3%.

As for `COc1ccccc1OP(C)(=O)Nc1ccc(C)cc1` (stereo not drawn), the activation was inactive: 0%. Under `Cc1ccc(NP(C)(=O)Oc2ccccc2)c(C)c1` (stereo not drawn) stands inactive: -0.3%; under `Cc1ccc(C)c(NP(C)(=O)Oc2ccccc2)c1` (stereo not drawn), inactive: 0.6%; under `Cc1nc2ccc3ccccc3c2s1.O=[N+]([O-])c1cc([N+](=O)[O-])c(O)c([N+](=O)[O-])c1`, inactive: -0.3%.
